Experimental findings from patent publication US20050025822A1, “Method of pulmonary administration of an agent” (priority 2003, published 2005) are described below.

This data set in a line: In vivo delivery of liposomal ciprofloxacin via tracheal infusion (plasma and lung concentration). The following applies: rats, 48 hours after intratracheal instillation.

Regarding `O=C(O)c1cn(C2CC2)c2cc(N3CCNCC3)c(F)cc2c1=O` [free ciprofloxacin, ciprofloxacin], the “concentration of ciprofloxacin in the lungs (in words)” value is “low amount of ciprofloxacin was recovered in the lung tissue”.
